Assay results: patent US9266814B2, “Use of nitrooxy organic molecules in feed for reducing methane emission in ruminants, and/or to improve ruminant performance” (DSM IP ASSETS B.V., priority 2010, dated 2016)

Legend:
[1] = test system: methanogenesis in rumen liquor; experiment: In vitro test for methane production (modified Hohenheim Forage value Test); format: cell-based; conditions: reduction in methane vs control, 8 hours at 39° C., average of two experiments
[2] = test system: methane production of dairy cows; experiment: In vivo effect in dairy cows (indirect calorimeters); parameters: species or system Holstein X Friesian dairy cows

Row | SMILES | effect on methanogenesis (%) ([1]; 0.005% DM) | effect on methanogenesis (%) ([1]; 0.01% DM) | effect on methanogenesis (%) ([1]; 0.1% DM) | Methane production, % of control values ([2]; 500 mg/d) | Methane production, % of control values ([2]; 2500 mg/d)
1 | O=[N+]([O-])OCCCCCO[N+](=O)[O-] | 6 | 45 | 100 |  | 
2 | O=[N+]([O-])OCCCO [Compound 1, 3-Nitrooxypropanol] |  |  |  | 93 % of control | 90 % of control
